Target: Prothrombin (Homo sapiens, UniProt P00734)
Experiment: In vitro inhibition of human thrombin.

## Cc1ccc(NS(=O)(=O)Cc2ccc(F)cc2)c(=O)n1CC(=O)N[C@H]1CCc2nc(N)sc2C1
  Ki: 1440 nM
